A word on the Ki: it is the equilibrium dissociation constant of an inhibitor or competing ligand from its target. Lower therefore signals a stronger hold on the target.

The chains behind the UniProt entries cited, without tags or fusion partners.
UniProt P20272, whole entry: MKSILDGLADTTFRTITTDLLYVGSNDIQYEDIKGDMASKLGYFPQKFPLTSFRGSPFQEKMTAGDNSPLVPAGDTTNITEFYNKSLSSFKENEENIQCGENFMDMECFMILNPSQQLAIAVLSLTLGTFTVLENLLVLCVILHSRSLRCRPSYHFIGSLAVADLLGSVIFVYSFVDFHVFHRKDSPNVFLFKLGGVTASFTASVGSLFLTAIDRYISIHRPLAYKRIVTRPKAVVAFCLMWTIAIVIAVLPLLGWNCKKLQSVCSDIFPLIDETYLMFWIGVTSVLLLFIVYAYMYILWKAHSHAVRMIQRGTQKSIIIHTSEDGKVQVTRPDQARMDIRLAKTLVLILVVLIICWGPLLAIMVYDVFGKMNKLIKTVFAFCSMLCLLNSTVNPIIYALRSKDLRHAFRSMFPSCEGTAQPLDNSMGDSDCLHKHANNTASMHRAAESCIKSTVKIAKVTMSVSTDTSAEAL

The assay deals with Cannabinoid receptor 1 (Rattus norvegicus, UniProt P20272). In words: In vitro binding affinity was determined against rat brain Cannabinoid receptor 1. The essentials:
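Drug was serially diluted in 5 mg/mL fatty-acid-free BSA. Final 1 mL held 45 mM Tris-HCl, 2.7 mM MgCl2, 0.9 mM EDTA and 0.58 mg BSA. Incubation was 30 °C, 90 min. Bound ligand was separated by centrifugation, and pellet tips were scintillation-counted. Ki came from displacement.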

Some results are limits rather than exact numbers.

In the case of `CCCCC/C=C\C/C=C\C/C=C\C/C=C\CCC(C)C(=O)NCCO` (stereo unspecified), the affinity corresponds to a Ki of 32.5 nM.

As for `CCCCC/C=C\C/C=C\C/C=C\C/C=C\CCCC(=O)N(CCO)CCO`, the Ki was more than 10000 nM.

With `CCCCC/C=C\C/C=C\C/C=C\C/C=C\CCC(C)(C)C(=O)NC[C@@H](C)O`, affinity was put at a Ki of 154 nM.

With `CCCCC/C=C\C/C=C\C/C=C\C/C=C\CCCC(=O)NCCCO`, the Ki came to 29.9 nM.

On to `CCCCC/C=C\C/C=C\CCCCCCCC(=O)NCCO` (stereo in doubt; 37) [LINOLEOYLETHANOLAMIDE], for which the affinity, expressed as Ki, was 4600 nM.

In the case of `CCCCC/C=C\C/C=C\CCCCCCCC(=O)NCCO` (stereo in doubt; 38) [LINOLEOYLETHANOLAMIDE], the Ki is more than 25000 nM.
